For 30 molecules, IC50 results are on record in patent US10442819B2, “Tricyclic compounds as inhibitors of mutant IDH enzymes” (Merck Sharp & Dohme Corp., priority 2014, dated 2019).

By UniProt entry, the sequences of proteins in these tests, tags left out.
UniProt O75874, whole entry R132H: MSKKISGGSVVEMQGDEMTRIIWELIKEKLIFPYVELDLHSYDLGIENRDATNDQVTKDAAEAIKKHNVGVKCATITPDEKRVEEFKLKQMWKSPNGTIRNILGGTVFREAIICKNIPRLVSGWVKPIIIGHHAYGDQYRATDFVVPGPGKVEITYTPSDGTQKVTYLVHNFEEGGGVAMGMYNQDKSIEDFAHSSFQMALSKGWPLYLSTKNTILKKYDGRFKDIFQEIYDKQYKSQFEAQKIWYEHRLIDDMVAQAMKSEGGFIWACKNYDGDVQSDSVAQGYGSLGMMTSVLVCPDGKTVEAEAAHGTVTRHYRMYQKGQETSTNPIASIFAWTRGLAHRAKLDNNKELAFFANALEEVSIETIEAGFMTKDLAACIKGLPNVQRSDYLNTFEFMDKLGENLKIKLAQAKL

The experiment concerns the target R132H mutant IDH1 enzyme (Homo sapiens (Human), UniProt O75874, R132H). As to the kind of experiment: R132H IDH1 Enzymatic Assay. The format is biochemical. The settings on record: R132H mutant IDH1 enzyme 1.5 nM final; luminescence readout; read-out: IC50.

Usually IC50 stands for the concentration that gives 50% inhibition. Consider `CC1(C)CC(C(=O)N2Cc3cccnc3Nc3ccc(N4CC5CCC4CN5C(=O)OC(C)(C)C)cc32)C1` (stereo not drawn) [Example 193, tert-butyl 5-{6-[(3,3-dimethylcyclobutyl)carbonyl]-6,11-dihydro-5H-pyrido[2,3-b][1,5]benzodiazepin-8-yl}-2,5-diazabicyclo[2.2.2]octane-2-carboxylate], for which the IC50 stood at 125 nM.

Turning to `COCC(OC)c1ccc2c(c1)N(C(=O)[C@H]1CC[C@H](OC(C)C)CO1)Cc1cccnc1N2` (single isomer, unassigned) [Example 21], the half-inhibitory concentration (IC50) came to 77 nM.

In the case of `CO[C@H]1CC[C@H](C(=O)N2Cc3cccnc3Nc3ccc(CNC4(C(F)(F)F)CC4)cc32)CC1` [Example 484, N-({6-[(Trans-4-methoxycyclohexyl)carbonyl]-6,11-dihydro-5H-pyrido[2,3-b][1,5]benzodiazepin-8-yl}methyl)-1-(trifluoromethyl)cyclopropanamine], the half-inhibitory concentration (IC50) came out at 209 nM.

In the case of `O=C(C1CCN(CC(F)F)CCO1)N1Cc2cccnc2Nc2ccc(N3CCOCC3)cc21` (stereo not drawn) [Example 473, 6-{[4-(2,2-difluoroethyl)-1,4-oxazepan-7-yl]carbonyl}-8-morpholin-4-yl-6,11-dihydro-5H-pyrido[2,3-b][1,5]benzodiazepine], the concentration for half-maximal inhibition (IC50) came to 21 nM.

Consider `COC1C[C@@H]2CC[C@H]1CN2c1ccc2c(c1)N(C(=O)[C@H]1CC[C@H](OC(C)C)CC1)Cc1cccnc1N2` (single isomer, unassigned) [Example 339], for which the IC50 came to 30 nM.

Take `CCO[C@H]1CC[C@H](C(=O)N2Cc3cccnc3Nc3ccc(C4CCOCC4)cc32)CC1` [Example 382, 6-[(trans-4-ethoxycyclohexyl)carbonyl]-8-(tetrahydro-2H-pyran-4-yl)-6,11-dihydro-5H-pyrido[2,3-b][1,5]benzodiazepine]: the 50% inhibitory concentration (IC50) came out at 46 nM.

For the molecule `CN1CC[C@@H](C(=O)N2Cc3cccnc3Nc3ccc(N4CCOCC4)cc32)C[C@H]1C(F)(F)F` [Example 166, 6-{[(2S,4R)-1-methyl-2-(trifluoromethyl)piperidin-4-yl]carbonyl}-8-morpholin-4-yl-6,11-dihydro-5H-pyrido[2,3-b][1,5]benzodiazepine], the IC50 is 557 nM.

With `CO[C@H]1CC[C@H](C(=O)N2Cc3cccnc3Nc3ccc(-c4cnn(CC(C)C)c4)cc32)CC1` [Example 356, 6-[(trans-4-methoxycyclohexyl)carbonyl]-8-[1-(2-methylpropyl)-1H-pyrazol-4-yl]-6,11-dihydro-5H-pyrido[2,3-b][1,5]benzodiazepine], the concentration for half-maximal inhibition (IC50) was found to be 55 nM.

On to `CO[C@H]1CC[C@H](C(=O)N2Cc3cccnc3Nc3ccc(-c4cnn(C)c4)cc32)CC1` [Example 183, 6-[(trans-4-methoxycyclohexyl)carbonyl]-8-(1-methyl-1H-pyrazol-4-yl)-6,11-dihydro-5H-pyrido[2,3-b][1,5]benzodiazepine], for which the IC50 came to 139 nM.

Turning to `CC(C)O[C@H]1CC[C@H](C(=O)N2Cc3cccnc3Nc3ccc(-c4cnn(C)c4)cc32)OC1` [Example 140, ((2R,5S)-5-isopropoxytetrahydro-2H-pyran-2-yl)(8-(1-methyl-1H-pyrazol-4-yl)-5,11-dihydro-6H-benzo[b]pyrido[2,3-e][1,4]diazepin-6-yl)methanone], the IC50 worked out at 14 nM.

For the molecule `CO[C@H]1CC[C@H](C(=O)N2Cc3cccnc3Nc3ccc(-c4ccc(C#N)n4C)cc32)CC1` [Example 353, 5-{6-[(trans-4-methoxycyclohexyl)carbonyl]-6,11-dihydro-5H-pyrido[2,3-b][1,5]benzodiazepin-8-yl}-1-methyl-1H-pyrrole-2-carbonitrile], the half-inhibitory concentration (IC50) was 67 nM.

Regarding `COCCC1CN(c2ccc3c(c2)N(C(=O)[C@H]2CC[C@H](OC)CC2)Cc2cccnc2N3)CCO1` (stereo partly drawn) [Example 259, 6-[(trans-4-methoxycyclohexyl)carbonyl]-8-[2-(2-methoxyethyl)morpholin-4-yl]-6,11-dihydro-5H-pyrido[2,3-b][1,5]benzodiazepine], the half-inhibitory concentration (IC50) worked out at 660 nM.

On to `CC(C)O[C@H]1CC[C@H](C(=O)N2Cc3cccnc3Nc3ccc([C@@H]4COC[C@H]4C)cc32)OC1` [Example 539, ((2R,5S)-5-isopropoxytetrahydro-2H-pyran-2-yl)(8-((3R,4S)-4-methyltetrahydrofuran-3-yl)-5,11-dihydro-6H-benzo[b]pyrido[2,3-e][1,4]diazepin-6-yl)methanone], for which the IC50 came to 9 nM.

As to `O=C([C@H]1CC[C@@H](OC2CCC2)CC1)N1Cc2cccnc2Nc2ccc(N3CCOCC3)cc21` [Example 96, 6-{[cis-4-(cyclobutyloxy)cyclohex-yl]carbonyl}-8-morpholin-4-yl-6,11-dihydro-5H-pyrido[2,3-b][1,5]benzodiazepine], the half-maximal inhibitory concentration (IC50) is 111 nM.

Regarding `CO[C@H]1CC[C@H](C(=O)N2Cc3cccnc3Nc3ccc(C4=COCCO4)cc32)CC1` [Example 9, 8-(5,6-Dihydro-1,4-dioxin-2-yl)-6-[(trans-4-methoxycyclohexyl)carbonyl]-6,11-dihydro-5H-pyrido[2,3-b][1,5]benzodiazepine], the IC50 came to 206 nM.

Consider `CC(C)O[C@H]1CC[C@H](C(=O)N2Cc3cccnc3Nc3ccc(C4COCC4C)cc32)OC1` (mixture of isomers) [Example 532, ((2R,5S)-5-isopropoxytetrahydro-2H-pyran-2-yl)(8-(4-methyltetrahydrofuran-3-yl)-5,11-dihydro-6H-benzo[b]pyrido[2,3-e][1,4]diazepin-6-yl)methanone], for which the IC50 was 5 nM.

`CC(C)O[C@H]1CC[C@H](C(=O)N2Cc3cccnc3Nc3ccc(-c4ccnn4C)cc32)OC1` [Example 141, ((2R,5S)-5-isopropoxytetrahydro-2H-pyran-2-yl)(8-(1-methyl-1H-pyrazol-5-yl)-5,11-dihydro-6H-benzo[b]pyrido[2,3-e][1,4]diazepin-6-yl)methanone]: the IC50 is 15 nM.

In the case of `CO[C@H]1CC[C@@H](C(=O)N2Cc3cccnc3Nc3ccc(C4=CCC(C#N)CC4)cc32)CC1` (stereo partly drawn) [Example 359, 4-{6-[(cis-4-methoxycyclohexyl)carbonyl]-6,11-dihydro-5H-pyrido[2,3-b][1,5]benzodiazepin-8-yl}cyclohex-3-ene-1-carbonitrile], the concentration for half-maximal inhibition (IC50) came out at 40 nM.

Regarding `CO[C@H]1CC[C@H](C(=O)N2Cc3cccnc3Nc3ccc(N4CCOCC4)cc32)C[C@H]1C` [Example 92, 6-{[(1S,3R,4S)-4-methoxy-3-methylcyclohexyl]carbon-yl}-8-morpholin-4-yl-6,11-dihydro-5H-pyrido[2,3-b][1,5]benzodiazepine], the IC50 came out at 282 nM.

As for `CC(C)O[C@H]1CC[C@H](C(=O)N2Cc3cccnc3Nc3ccc(C(C)OC4CCCOC4)cc32)CC1` (stereo partly drawn) [Example 544, 6-{[trans-4-(1-methylethoxy)cyclohexyl]carbonyl}-8-[1-(tetrahydro-2H-pyran-3-yloxy)ethyl]-6,11-dihydro-5H-pyrido[2,3-b][1,5]benzodiazepine], the IC50 amounted to 20 nM.

In the case of `CO[C@H]1CC[C@H](C(=O)N2Cc3cccnc3Nc3ccc(C4COCCO4)cc32)CC1` (stereo partly drawn) [Example 10, 8-(1,4-Dioxan-2-yl)-6-[(trans-4-methoxycyclohexyl)carbonyl]-6,11-dihydro-5H-pyrido[2,3-b][1,5]benzodiazepine], the half-maximal inhibitory concentration (IC50) stood at 396 nM.

As to `COC1CN(c2ccc3c(c2)N(C(=O)[C@H]2CC[C@H](OC)CC2)Cc2cccnc2N3)CC1F` (stereo partly drawn) [Example 218, 8-(3-fluoro-4-methoxypyrrolidin-1-yl)-6-[(trans-4-methoxycyclohexyl)carbonyl]-6,11-dihydro-5H-pyrido[2,3-b][1,5]benzodiazepine], the IC50 came out at 198 nM.

In the case of `C=CC(=O)N1CC2(CCN2c2ccc3c(c2)N(C(=O)C2CC(C)(C)C2)Cc2cccnc2N3)C1` [Example 496, 8-(6-Acryloyl-1,6-diazaspiro[3.3]hept-1-yl)-6-[(3,3-dimethylcyclobutyl)carbonyl]-6,11-dihydro-5H-pyrido[2,3-b][1,5]benzodiazepine], the concentration for half-maximal inhibition (IC50) came to 3340 nM.

`CC(C)O[C@H]1CC[C@H](C(=O)N2Cc3cccnc3Nc3ccc(C4=CCC(O)CC4)cc32)CC1` (stereo partly drawn) [Example 390, 4-(6-{[trans-4-(1-methylethoxy)cyclohexyl]carbonyl}-6,11-dihydro-5H-pyrido[2,3-b][1,5]benzodiazepin-8-yl)cyclohex-3-en-1-ol]: the IC50 came out at 11 nM.

On to `O=C([C@H]1CC[C@H](OC2CC2)CC1)N1Cc2cccnc2Nc2ccc(N3CCOCC3)cc21` [Example 90, 6-{[trans-4-(cyclopropyloxy)cyclo-hexyl]carbonyl}-8-morpholin-4-yl-6,11-dihydro-5H-pyrido[2,3-b][1,5]benzodiazepine], for which the IC50 came to 104 nM.

Consider `CO[C@H]1CC[C@H](C(=O)N2Cc3cccnc3Nc3ccc(C(=O)Nc4ccccc4F)cc32)CC1` [Example 509, N-(2-Fluorophenyl)-6-[(trans-4-methoxycyclohexyl)carbonyl]-6,11-dihydro-5H-pyrido[2,3-b][1,5]benzodiazepine-8-carboxamide], for which the IC50 was determined as 233 nM.

Turning to `CO[C@H]1CC[C@H](C(=O)N2Cc3cccnc3Nc3ccc(N4CCn5c(C)nnc5C4)cc32)CC1` [Example 267, 6-[(trans-4-methoxycyclohexyl)carbonyl]-8-(3-methyl-5,6-dihydro[1,2,4]triazolo[4,3-a]pyrazin-7(8H)-yl)-6,11-dihydro-5H-pyrido[2,3-b][1,5]benzodiazepine], the 50% inhibitory concentration (IC50) worked out at 749 nM.

For `COC1CC2COCC(C1)N2c1ccc2c(c1)N(C(=O)[C@H]1CC[C@H](OC(C)C)CC1)Cc1cccnc1N2` (stereo partly drawn) [Example 326, 8-(7-methoxy-3-oxa-9-azabicyclo[3.3.1]non-9-yl)-6-{[trans-4-(1-methylethoxy)cyclohexyl]car-bonyl}-6,11-dihydro-5H-pyrido[2,3-b][1,5]benzodiazepine], the half-inhibitory concentration (IC50) was determined as 14 nM.

Turning to `CO[C@H]1CC[C@H](C(=O)N2Cc3cccnc3Nc3ccc(N4CCc5nn(C)cc5C4)cc32)CC1` [Example 275, 6-[(trans-4-methoxycyclohexyl)carbonyl]-8-(2-methyl-2,4,6,7-tetrahydro-5H-pyrazolo[4,3-c]pyridin-5-yl)-6,11-dihydro-5H-pyrido[2,3-b][1,5]benzodiazepine], the half-inhibitory concentration (IC50) was determined as 287 nM.

As to `O=C([C@H]1CC[C@@H](NC2(C(F)(F)F)CC2)C1)N1Cc2cccnc2Nc2ccc(N3CCOCC3)cc21` (single isomer, unassigned) [Example 471], the IC50 turned out to be 51 nM.
